Test results: PubChem BioAssay AID504467 (National Center for Advancing Translational Sciences (NCATS), 2011)
The entries are a selection whose mix differs from that of the whole data set. Results filed as inconclusive are left out. Where a call stands in place of a potency, no number is given. Calls of active or inactive are those of the source. Calls follow the shape of the dose curve; as a rule, active = well fitted inhibition curve with a large enough effect; inconclusive = small, poorly fitted or top-dose-only effect, or effect the other way; inactive = flat fitted curve, though single readings scatter.

Assay: qHTS screen for small molecules that inhibit ELG1-dependent DNA repair in human embryonic kidney (HEK293T) cells expressing luciferase-tagged ELG1; also: nearly all actives have a fitted effect of over 55% in size
Details: HEK293T ELG1-luciferase reporter, luminescence, 16 h, DNA damage induced by 5-fluorouridine; series mostly up to 46.1 µM
Potency is read from the fitted curve at half-maximal effect.

Row | Structure (SMILES) | Potency
1 | C[C@@H]1C=CCP(=O)(Oc2ccccc2)O1 (stereo partly drawn) | inactive
2 | Cc1ccccc1CN(C)C(=O)COC(=O)C(O)(c1ccccc1)c1ccccc1 | inactive
3 | CC(C)(C)C(=O)NC(Sc1ccccc1)C(Cl)(Cl)Cl (stereo not drawn) | inactive
4 | CCOc1ccc(C2=NCC(CBr)S2)cc1 (stereo not drawn) | inactive
5 | CCOP(=O)(Nc1cccc2ccccc12)OCC | inactive
6 | COc1cc(C2NCCC3(OCCO3)C2(C)C)cc(OC)c1OC (stereo not drawn) | inactive
7 | CCCOP(=S)(Nc1nc(N)cc(=O)[nH]1)OCCC | inactive
8 | Nc1cccc2c([As](=O)(O)O)cccc12 | inactive
9 | Cc1ccc(NCCc2c([N+](=O)[O-])cc([N+](=O)[O-])cc2[N+](=O)[O-])cc1 | inactive
10 | O=[As](O)(c1cccc(O)c1)c1cccc(O)c1 | inactive
11 | CS(=O)(=O)c1ccc(Cl)c(NC(=O)COC(=O)C(O)(c2ccccc2)c2ccccc2)c1 | inactive
12 | O=[As](O)(O)c1cccnc1 | inactive
13 | CN(C(=O)Cc1ccccc1)[C@@H]1CC[C@]2(CCCO2)C[C@H]1N1CCCC1 | inactive
14 | CCOP1(=S)c2c(C)nn(CCC#N)c2N=C(c2ccc(F)cc2)N1C (stereo not drawn) | inactive
15 | N#CCCN(C(=O)COC(=O)C(O)(c1ccccc1)c1ccccc1)c1ccc(F)cc1 | inactive
16 | NC(=O)Nc1ccc([As](=O)(O)O)cc1 | inactive
17 | Nc1ccccc1[As](=O)(O)c1ccccc1 | inactive
18 | O=C(O)COc1ccc([As](=O)(O)O)cc1[N+](=O)[O-] | inactive
19 | CS(=O)(=O)c1cc([N+](=O)[O-])c2no[n+]([O-])c2c1 | inactive
20 | O=P(Nc1nccs1)(Oc1ccccc1)Oc1ccccc1 | inactive

Row | Structure (SMILES) | Potency
21 | O=P(Nc1nccs1)(c1ccccc1)c1nc2ccccc2s1 (stereo not drawn) | inactive
22 | CCOP1(=S)c2c(C)nn(CCC#N)c2N=C(c2ccccc2F)N1C (stereo not drawn) | inactive
23 | Cc1ccc(OCC(=O)OC2CN3CCC2CC3)cc1 (stereo not drawn) | inactive
24 | O=P1(Nc2ccc(Br)cn2)COc2ccccc2OC1 | inactive
25 | NS(=O)(=O)c1cccc(NC(=O)COC(=O)C(O)(c2ccccc2)c2ccccc2)c1 | inactive
26 | Nc1cccc([As](=O)(O)c2ccccc2)c1 | inactive
27 | O=C(/C=C/c1ccccc1)OC1CN2CCC1CC2 (stereo not drawn) | inactive
28 | CN(C)C1(CNC(=O)c2ccc(S(C)(=O)=O)cc2)CCCCC1 | inactive
29 | Cc1nn(-c2ccccc2)c2c1P(=O)(N1CCOCC1)N(C)C(c1ccccc1)=N2 (stereo not drawn) | inactive
30 | O=[As](O)(c1ccccc1Br)c1ccccc1Br | inactive
31 | CC(C)/C=N\N=C(\N)N[N+](=O)[O-] | inactive
32 | COc1ccccc1CNC(=O)COC(=O)C(O)(c1ccccc1)c1ccccc1 | inactive
33 | CC(C)(C)C(=O)NC(Sc1ncccn1)C(Cl)(Cl)Cl (stereo not drawn) | inactive
34 | Clc1n[nH]nc1-c1nn[nH][15n]1 | inactive
35 | CCOP(=O)(Nc1ccc(C)cn1)OCC | inactive
36 | CCOP(=O)(NC(=NC(C)c1ccccc1)NC(C)c1ccccc1)OCC (stereo not drawn) | inactive
37 | O=P1(Nc2ccccn2)COc2ccccc2OC1 | inactive
38 | CCC1=CC2Cc3nc4ccc(Cl)cc4c(N)c3C(C1)C2 (stereo not drawn) | active: 10 µM
39 | CCC(C)N(CC(C)C)C(=S)SC(NC(C)=O)C(Cl)(Cl)Cl (stereo not drawn) | inactive
40 | COP1(=S)c2c(C)nn(CCC#N)c2N=C(c2ccc(F)cc2)N1C (stereo not drawn) | inactive

Row | Structure (SMILES) | Potency
41 | O=[N+]([O-])c1ccc(Nc2ccc(Oc3ccc([N+](=O)[O-])cc3[N+](=O)[O-])cc2)c([N+](=O)[O-])c1 | inactive
42 | O=P(Nc1ccccn1)(c1cccc2ccccc12)c1cccc2ccccc12 | inactive
43 | Cc1cc(SC(NC=O)C(Cl)(Cl)Cl)ncn1 (stereo not drawn) | inactive
44 | CCOC(=O)Nc1cccc([As](=O)(O)O)c1 | inactive
45 | Cc1cc(SC(NC(=O)c2ccccc2)C(Cl)(Cl)Cl)nc(C(C)C)n1 (stereo not drawn) | inactive
46 | CCCCOc1ccc(C(=O)NCC2(N3CCCCC3)CCCCC2)cc1OC | inactive
47 | CCOC(=O)Nc1ccc([As](=O)(O)O)c(O)c1 | inactive
48 | O=[N+]([O-])c1cc([N+](=O)[O-])c(-c2ccn[nH]2)s1 | inactive
49 | CC(C)NC(=O)NP(=O)(Oc1ccccc1)Oc1ccccc1 | inactive
50 | CCN(CC)C(=S)SC(NC=O)C(Cl)(Cl)Cl (stereo not drawn) | inactive
51 | Cc1ccc(OP(=O)(Nc2ccc([N+](=O)[O-])cn2)Oc2ccc(C)cc2)cc1 | inactive
52 | COc1cc(C(=O)NCC2(N3CCOCC3)CCCCC2)ccc1OCC(C)C | inactive
53 | O=[As](O)(c1ccc(O)cc1)c1ccccc1O | inactive
54 | C[As](=O)(O)c1cccc(C(=O)O)c1 | inactive
55 | COc1ccc(N/C(=N/P(=O)(N2CCOCC2)N2CCOCC2)N2CCOCC2)cc1 | inactive
56 | COc1cc(I)ccc1[As](=O)(O)O | inactive
57 | O=C(OC1CN2CCC1CC2)C12CC3CC(CC(C3)C1)C2 (stereo not drawn) | inactive
58 | Cc1c2c(nc3ccccc13)SC(C(Cl)Cl)C2 (stereo not drawn) | inactive
